## urokinase
delta-plasminogen
  Km (urokinase activation, S-2251 coupled assay): 30 µM
  fold change of Km for urokinase activation against plasminogen: approximately 30-fold higher than for plasminogen
  kcat (urokinase activation, S-2251 coupled assay): 1.33 s⁻¹
  kcat/Km (urokinase activation, S-2251 coupled assay): 44500 M⁻¹ s⁻¹
full-length plasminogen
  Km (urokinase activation, S-2251 coupled assay): 1.2 µM
  kcat (urokinase activation, S-2251 coupled assay): 0.0383 s⁻¹
  kcat/Km (urokinase activation, S-2251 coupled assay): 32000 M⁻¹ s⁻¹

Source: patent US20100304465
